Measured values from patent US20090099157A1, “TETRAHYDRO-PYRAZOLO-PYRIDINE THIOETHER MODULATORS OF CATHEPSIN S” (priority 2007, published 2009).

The chains behind the UniProt entries cited, without tags or fusion partners. Residues count along the entry.
UniProt P25774, 115-331: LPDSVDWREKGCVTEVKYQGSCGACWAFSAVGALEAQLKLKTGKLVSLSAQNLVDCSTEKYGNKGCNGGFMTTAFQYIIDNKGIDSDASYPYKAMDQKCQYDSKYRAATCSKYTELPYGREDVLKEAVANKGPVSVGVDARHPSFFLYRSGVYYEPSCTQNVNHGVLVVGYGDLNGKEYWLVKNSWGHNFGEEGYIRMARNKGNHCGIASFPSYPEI

Target: Recombinant human cathepsin S (CatS) (Homo sapiens, UniProt P25774)
Assay: biochemical

| Structure (SMILES) | IC50 [nM] |
| --- | --- |
| O=C(C1CCN(CC(O)Cn2nc(-c3ccc(C(F)(F)F)c(SCCN4CCCC(O)C4)c3)c3c2CCNC3)CC1)N1CCCC1 (centres unmarked) [Example 497, 1-(2-{[5-(1-{2-Hydroxy-3-[4-(pyrrolidin-1-ylcarbonyl)piperidin-1-yl]propyl}-4,5,6,7-tetrahydro-1H-pyrazolo[4,3-c]pyridin-3-yl)-2-(trifluoromethyl)phenyl]sulfanyl}ethyl)piperidin-3-ol] | 6150 |
| CC1(O)CCN(CCSc2cc(-c3nn(C[C@@H](O)CN4CCOCC4)c4c3CN(S(C)(=O)=O)CC4)ccc2C(F)(F)F)CC1 [Example 225, 1-(2-{[5-{1-[(2S)-2-Hydroxy-3-morpholin-4-ylpropyl]-5-(methylsulfonyl)-4,5,6,7-tetrahydro-1H-pyrazolo[4,3-c]pyridin-3-yl}-2-(trifluoromethyl)phenyl]sulfanyl}ethyl)-4-methylpiperidin-4-ol] | 1520 |
| CS(=O)(=O)N1CCc2c(c(-c3ccc(C(F)(F)F)c(SCCN4CCOCC4)c3)nn2CCCN2CCCCC2)C1 [Example 326, 5-(Methylsulfonyl)-3-{3-[(2-morpholin-4-ylethyl)sulfanyl]-4-(trifluoromethyl)phenyl}-1-(3-piperidin-1-ylpropyl)-4,5,6,7-tetrahydro-1H-pyrazolo[4,3-c]pyridine] | 880 |
| CSCC(=O)N1CCc2c(c(-c3ccc(C(F)(F)F)c(SCCN4CCC(F)CC4)c3)nn2C[C@@H](O)CN2CCCCC2)C1 [Example 441, (2S)-1-{3-[3-{[2-(4-Fluoropiperidin-1-yl)ethyl]sulfanyl}-4-(trifluoromethyl)phenyl]-5-[(methylsulfanyl)acetyl]-4,5,6,7-tetrahydro-1H-pyrazolo[4,3-c]pyridin-1-yl}-3-piperidin-1-ylpropan-2-ol] | 310 |
| CS(=O)(=O)N1CCc2c(c(-c3ccc(C(F)(F)F)c(SCC(=O)Nc4cccc(-c5ccccc5)c4)c3)nn2CC(O)CN2CCC(N3CCCC3=O)CC2)C1 (centres unmarked) [Example 70, N-Biphenyl-3-yl-2-[5-(1-{2-hydroxy-3-[4-(2-oxo-pyrrolidin-1-yl)-piperidin-1-yl]-propyl}-5-methanesulfonyl-4,5,6,7-tetrahydro-1H-pyrazolo[4,3-c]pyridin-3-yl)-2-trifluoromethyl-phenylsulfanyl]-acetamide] | 1850 |
| CC1CCN(CCSc2cc(-c3nn(C[C@@H](O)CN4CCCC4)c4c3CN(S(C)(=O)=O)CC4)ccc2C(F)(F)F)CC1 [Example 344, (2S)-1-{3-[3-{[2-(4-Methylpiperidin-1-yl)ethyl]sulfanyl}-4-(trifluoromethyl)phenyl]-5-(methylsulfonyl)-4,5,6,7-tetrahydro-1H-pyrazolo[4,3-c]pyridin-1-yl}-3-pyrrolidin-1-ylpropan-2-ol] | 280 |
| OC1CCN(CC(O)Cn2nc(-c3ccc(C(F)(F)F)c(SCCN4CCCCC4)c3)c3c2CCNC3)C1 (centres unmarked) [Example 290, 1-[2-Hydroxy-3-(3-{3-[(2-piperidin-1-ylethyl)sulfanyl]-4-(trifluoromethyl)phenyl}-4,5,6,7-tetrahydro-1H-pyrazolo[4,3-c]pyridin-1-yl)propyl]pyrrolidin-3-ol] | > 20000 |
| CS(=O)(=O)N1CCc2c(c(-c3ccc(C(F)(F)F)c(SCCN4CCCC4)c3)nn2CCCN2CCCCC2)C1 [Example 312, 5-(Methylsulfonyl)-1-(3-piperidin-1-ylpropyl)-3-{3-[(2-pyrrolidin-1-ylethyl)sulfanyl]-4-(trifluoromethyl)phenyl}-4,5,6,7-tetrahydro-1H-pyrazolo[4,3-c]pyridine] | 950 |
| O=C([C@@H](O)c1ccccc1)N1CCc2c(c(-c3ccc(C(F)(F)F)c(SCCN4CCC(F)CC4)c3)nn2CC(O)CN2CCCCC2)C1 (stereo partly drawn) [Example 653, 1-{3-[3-{[2-(4-Fluoropiperidin-1-yl)ethyl]sulfanyl}-4-(trifluoromethyl)phenyl]-5-[(2S)-2-hydroxy-2-phenylacetyl]-4,5,6,7-tetrahydro-1H-pyrazolo[4,3-c]pyridin-1-yl}-3-piperidin-1-ylpropan-2-ol] | 400 |
| O=C(CO)NC1CCN(CC(O)Cn2nc(-c3ccc(C(F)(F)F)c(SCCN4CCC(F)(F)C4)c3)c3c2CCNC3)CC1 (centres unmarked) [Example 398, N-[1-(3-{3-[3-{[2-(3,3-Difluoropyrrolidin-1-yl)ethyl]sulfanyl}-4-(trifluoromethyl)phenyl]-4,5,6,7-tetrahydro-1H-pyrazolo[4,3-c]pyridin-1-yl}-2-hydroxypropyl)piperidin-4-yl]-2-hydroxyacetamide] | 1550 |
| CS(=O)(=O)N1CCc2c(c(-c3ccc(C(F)(F)F)c(SCCN4CCCC4)c3)nn2CCCN2CCC(N3CCCC3=O)CC2)C1 [Example 25, 1-[1-(3-{5-Methanesulfonyl-3-[3-(2-pyrrolidin-1-yl-ethylsulfanyl)-4-trifluoromethyl-phenyl]-4,5,6,7-tetrahydro-pyrazolo[4,3-c]pyridin-1-yl}-propyl)-piperidin-4-yl]-pyrrolidin-2-one] | 410 |
| CC1(O)CCN(CCSc2cc(-c3nn(C[C@@H](O)CN4CCCCC4)c4c3CN(S(C)(=O)=O)CC4)ccc2C(F)(F)F)CC1 [Example 217, 1-(2-{[5-{1-[(2S)-2-Hydroxy-3-piperidin-1-ylpropyl]-5-(methylsulfonyl)-4,5,6,7-tetrahydro-1H-pyrazolo[4,3-c]pyridin-3-yl}-2-(trifluoromethyl)phenyl]sulfanyl}ethyl)-4-methylpiperidin-4-ol] | 810 |
| CC1(O)CCN(C[C@H](O)Cn2nc(-c3ccc(C(F)(F)F)c(SCCN4CCC5CCCCC5C4)c3)c3c2CCN(S(C)(=O)=O)C3)CC1 (stereo partly drawn) [Example 197, 1-[(2S)-2-Hydroxy-3-[5-(methylsulfonyl)-3-[3-{[2-(octahydroisoquinolin-2(1H)-yl)ethyl]sulfanyl}-4-(trifluoromethyl)phenyl]-4,5,6,7-tetrahydro-1H-pyrazolo[4,3-c]pyridin-1-yl}propyl]-4-methylpiperidin-4-ol] | 270 |
| Oc1cccc(N2CCN(CC(O)Cn3nc(-c4ccc(C(F)(F)F)c(SCCN5CCCCC5)c4)c4c3CCNC4)CC2)c1 (centres unmarked) [Example 383, 3-{4-[2-Hydroxy-3-(3-{3-[(2-piperidin-1-ylethyl)sulfanyl]-4-(trifluoromethyl)phenyl}-4,5,6,7-tetrahydro-1H-pyrazolo[4,3-c]pyridin-1-yl)propyl]piperazin-1-yl}phenol] | 800 |
| O=C(CO)N1CCc2c(c(-c3ccc(C(F)(F)F)c(SCCN4CCC(F)CC4)c3)nn2CC(O)CN2CCCCC2)C1 (centres unmarked) [Example 283, 1-[3-{3-[2-(4-Fluoro-piperidin-1-yl)-ethylsulfanyl]-4-trifluoromethyl-phenyl}-1-(2-hydroxy-3-piperidin-1-yl-propyl)-1,4,6,7-tetrahydro-pyrazolo[4,3-c]pyridin-5-yl]-2-hydroxy-ethanone] | 280 |
| O=C(CO)N1CCc2c(c(-c3ccc(C(F)(F)F)c(SCCN4CCC(F)(F)C4)c3)nn2CC(O)CN2CCOCC2)C1 (centres unmarked) [Example 355, 1-{3-[3-{[2-(3,3-Difluoropyrrolidin-1-yl)ethyl]sulfanyl}-4-(trifluoromethyl)phenyl]-5-(hydroxyacetyl)-4,5,6,7-tetrahydro-1H-pyrazolo[4,3-c]pyridin-1-yl}-3-morpholin-4-ylpropan-2-ol] | 210 |

Now those with a lower IC50, led by results:

| IC50 [nM] | Structure (SMILES) |
| --- | --- |
| 190 | CS(=O)(=O)N1CCc2c(c(-c3ccc(C(F)(F)F)c(SCCN4CCC(F)(F)CC4)c3)nn2C[C@@H](O)CN2CCCCCC2)C1 [Example 575, (2S)-1-Azepan-1-yl-3-{3-[3-{[2-(4,4-difluoropiperidin-1-yl)ethyl]sulfanyl}-4-(trifluoromethyl)phenyl]-5-(methylsulfonyl)-4,5,6,7-tetrahydro-1H-pyrazolo[4,3-c]pyridin-1-yl}propan-2-ol] |
| 140 | CS(=O)(=O)N1CCc2c(c(-c3ccc(C(F)(F)F)c(SCCN4CCOCC4)c3)nn2CC(O)CN2CCN(c3ncccn3)CC2)C1 (centres unmarked) [Example 673] |
| 110 | CS(=O)(=O)N1CCc2c(c(-c3ccc(C(F)(F)F)c(SCCN4CCCC(F)(F)C4)c3)nn2C[C@@H](O)CN2CCCCC2)C1 [Example 208, (2S)-1-{3-[3-{[2-(3,3-Difluoropiperidin-1-yl)ethyl]sulfanyl}-4-(trifluoromethyl)phenyl]-5-(methylsulfonyl)-4,5,6,7-tetrahydro-1H-pyrazolo[4,3-c]pyridin-1-yl}-3-piperidin-1-ylpropan-2-ol] |
| 110 | CS(=O)(=O)N1CCc2c(c(-c3ccc(C(F)(F)F)c(SCCN4CCOCC4)c3)nn2CC(O)CN2CCC(N3CCCC3=O)CC2)C1 (centres unmarked) [Example 181, 1-(1-{2-Hydroxy-3-[5-(methylsulfonyl)-3-{3-[(2-morpholin-4-ylethyl)sulfanyl]-4-(trifluoromethyl)phenyl}-4,5,6,7-tetrahydro-1H-pyrazolo[4,3-c]pyridin-1-yl]propyl}piperidin-4-yl)pyrrolidin-2-one] |
| 65 | CCOC(=O)NC1CCN(CC(O)Cn2nc(-c3ccc(C(F)(F)F)c(SCCN4CCCCC4)c3)c3c2CCN(S(C)(=O)=O)C3)CC1 (centres unmarked) [Example 693, Ethyl (1-{2-hydroxy-3-[5-(methylsulfonyl)-3-{3-[(2-piperidin-1-ylethyl)sulfanyl]-4-(trifluoromethyl)phenyl}-4,5,6,7-tetrahydro-1H-pyrazolo[4,3-c]pyridin-1-yl]propyl}piperidin-4-yl)carbamate] |
| 65 | CS(=O)(=O)N1CCc2c(c(-c3ccc(C(F)(F)F)c(SCC(=O)N4CCOCC4)c3)nn2CC(O)CN2CCC(O)(c3ccccc3)CC2)C1 (centres unmarked) [Example 778, 1-{2-Hydroxy-3-[5-(methylsulfonyl)-3-{3-[(2-morpholin-4-yl-2-oxoethyl)sulfanyl]-4-(trifluoromethyl)phenyl}-4,5,6,7-tetrahydro-1H-pyrazolo[4,3-c]pyridin-1-yl]propyl}-4-phenylpiperidin-4-ol] |
| 27 | CCS(=O)(=O)NCCSc1cc(-c2nn(CC(O)CN3CCC(N4CCCC4=O)CC3)c3c2CN(S(C)(=O)=O)CC3)ccc1C(F)(F)F (centres unmarked) [Example 772, N-[2-({5-[1-{2-Hydroxy-3-[4-(2-oxopyrrolidin-1-yl)piperidin-1-yl]propyl}-5-(methylsulfonyl)-4,5,6,7-tetrahydro-1H-pyrazolo[4,3-c]pyridin-3-yl]-2-(trifluoromethyl)phenyl}sulfanyl)ethyl]ethanesulfonamide] |
